Columns and labels:
167 bp Widom DNA = assay: EMSA, DNA binding; conditions: 167 bp DNA, 30 min, 4 °C, pH 7.5, ethidium bromide
H4K5acK8ac nucleosomes = assay: ITC, nucleosome binding; parameters: species or system human

Substance | Interaction with DNA (167 bp Widom DNA) | Reduction of nucleosome-binding affinity by mutation, compared with WT N-BRDT(1) (H4K5acK8ac nucleosomes) [fold]
N-BRDT(1)-3KS: N-BRDT(1) triple mutant, lysines K37, K41 and K45 to serine | abolished DNA binding | 
BRD3-BD2: BRD3(2) (aas 306–416) | do | 
BRD2-BD1: codon-optimized BRD2(1) (aas 48–184) | do | 
BRD3-BD1: BRD3(1) (aas 24–144) | does not interact with DNA | 
BRD2-BD2: BRD2(2) (aas 348–455) | do | 
N-BRDT(1)-KS2: N-BRDT(1) single point mutation of the central lysine (K41S) | most pronounced effect | ~3.5

Reference: paper PMC5187433, “A bromodomain–DNA interaction facilitates acetylation-dependent bivalent nucleosome recognition by the BET protein BRDT” (Nature Communications, 2016)
